One test relates to C2C12 cells. Description: alamarBlue proliferation assay with C2C12 cells. Conditions: read-out: Activity on C2C12: IC50; C2C12 murine myoblast cells, RPMI 1640 medium, 10% FBS. In general terms: Resazurin is reduced to fluorescent resorufin, in cell work by metabolically active cells.
In the next test the test system is U-87 MG cells. Kind of test: alamarBlue proliferation assay with U-87 MG cells. As to conditions: read-out: Activity on U-87MG: IC50, EMEM medium, 10% FBS.
A further test deals with CF21.T cells. Description: alamarBlue proliferation assay with CF21.T cells. Conditions: read-out: Activity on CF21.T: IC50; CF21.T canine cells, DMEM medium, 10% FBS.
A further test has as its system A-431 cells. Description: alamarBlue proliferation assay with A-431 cells. Conditions: read-out: Activity on A-431: IC50, DMEM medium, 10% FBS.
Another test concerns HEP-G2 cells. Kind of test: alamarBlue proliferation assay with HEP-G2 cells. As to conditions: read-out: Activity on HEP-G2: IC50, RPMI 1640 medium, 10% FBS.
The subject of the next test is A-375 cells. Description: alamarBlue proliferation assay with A-375 cells. As to conditions: read-out: Activity on A-375: IC50, DMEM medium, 10% FBS.
The test system of another test is NCI-H460 cells. Description: alamarBlue proliferation assay with NCI-H460 cells. As to conditions: read-out: Activity on NCI-H460: IC50, RPMI 1640 medium, 10% FBS.

Take `CS(=O)(=O)c1ccc(CN2CCN(C(=O)c3ccc(Oc4ccc(C5CCC6(CC5)OCCO6)cc4CO)cc3)CC2)cc1`: the IC50 with C2C12 cells and in the test with U-87 MG cells was at most 1000 nM each time.

For `COC1CCC(c2ccc(Oc3ccc(C(=O)N4CCN(Cc5ccc(S(F)(F)(F)(F)F)cc5)CC4)cc3)c(CO)c2)CC1` (centres unmarked), the IC50 with CF21.T cells, with A-431 cells, in the test with HEP-G2 cells and in the test with A-375 cells was at most 200 nM throughout.

On to `O=Cc1cc(C2CCC3(CC2)SCCCS3)ccc1Oc1ccc(C(=O)N2CCN(Cc3ccc(Cl)cc3)CC2)nc1`, for which the IC50 (as a rule, the midpoint of a concentration-inhibition curve) was at most 1000 nM in the test on CF21.T cells and at most 200 nM in the test with A-375 cells.

With `COC1CCC(c2ccc(Oc3ccc(C(=O)N4CCN(Cc5ccc(C(F)(F)F)cc5)CC4)nc3)c(CO)c2)CC1` (centres unmarked), the IC50 in the test with CF21.T cells, in the test on A-431 cells and in the test on A-375 cells was at most 200 nM each time.

Regarding `COC1CCC(c2ccc(Oc3ccc(C(=O)N4CCN(Cc5ccc(C(F)(F)F)nc5)CC4)cc3)c(CO)c2)CC1` (centres unmarked), the IC50 in the test with CF21.T cells, with A-431 cells and in the test on A-375 cells was at most 200 nM each time.

Regarding `COC1CCC(c2ccc(Oc3ccc(C(=O)N4CCN(Cc5ccc(OCC(F)(F)F)cc5)CC4)cc3)c(CO)c2)CC1` (centres unmarked), the IC50 in the test with CF21.T cells and with A-375 cells was at most 200 nM in each case.

Turning to `O=C(c1ccc(Oc2ccc(C3CCC4(CC3)OCCO4)cc2CO)cc1)N1CCN(Cc2ccc(C(F)(F)F)nc2)CC1`, the IC50 was at most 200 nM in the test on C2C12 cells, at most 200 nM with A-431 cells, at most 200 nM in the test with A-375 cells and at most 20000 nM with U-87 MG cells.

On to `COc1ccc(CN2CCN(C(=O)c3ccc(Oc4ccc(C5CCC6(CC5)OCCO6)cc4CO)cc3)CC2)cn1`, for which the IC50 is at most 1000 nM in the test on C2C12 cells, at most 200 nM in the test on A-431 cells, at most 200 nM with A-375 cells and at most 1000 nM in the test on U-87 MG cells.

For `O=C(c1ccc(Oc2ccc(C3CCC4(CCCC4)CC3)cc2CO)cc1)N1CCN(Cc2ccccc2)CC1`, the IC50 is at most 1000 nM in the test with A-431 cells, at most 1000 nM in the test with HEP-G2 cells and at most 5000 nM in the test with U-87 MG cells.

As to `COC1CCC(c2ccc(Oc3ccc(C(=O)N4CCN(Cc5ccc6ccccc6c5)CC4)nc3)c(CO)c2)CC1` (centres unmarked), the IC50 in the test with CF21.T cells is at most 1000 nM; with A-375 cells, at most 200 nM.

Consider `O=C(c1ccc(Oc2ccc(C3CCC4(CC3)OCCO4)cc2CO)cc1)N1CCN(Cc2ccsc2)CC1`, for which the 50% inhibitory concentration (IC50) in the test with NCI-H460 cells and in the test with U-87 MG cells was at most 20000 nM each time.

Regarding `O=C(c1ccc(Oc2ccc(C3CCC4(CC3)OCCO4)cc2CO)cc1)N1CCN(Cc2ccc(Cl)cc2)CC1`, the IC50 is at most 200 nM in the test on CF21.T cells; at most 200 nM in the test with NCI-H460 cells; at most 1000 nM in the test on C2C12 cells; at most 200 nM in the test on A-431 cells; at most 200 nM in the test with HEP-G2 cells; at most 200 nM in the test with A-375 cells. Also, the IC50 in the test on U-87 MG cells is at most 200 nM.

For the molecule `COC1CCC(c2ccc(Oc3ccc(C(=O)N4CCN(Cc5ccc(C(F)(F)F)cn5)CC4)cc3)c(CO)c2)CC1` (centres unmarked), the IC50 in the test with CF21.T cells, in the test with A-431 cells and in the test on A-375 cells was at most 200 nM throughout.

For `O=C(c1ccc(Oc2ccc(C3CCC4(CC3)OCCO4)cc2CO)cc1)N1CCN(Cc2ccc(O)cc2)CC1`, the IC50 with NCI-H460 cells is at most 200 nM; with U-87 MG cells, at most 20000 nM.

For `O=C(c1ccc(Oc2ccc(C3CCC4(CC3)OCCO4)cc2CO)cc1)N1CCCN(Cc2ccc(Cl)cc2)CC1`, the IC50 in the test with C2C12 cells and in the test on U-87 MG cells was at most 5000 nM throughout.

On to `Cn1c(CN2CCN(C(=O)c3ccc(Oc4ccc(C5CCC6(CC5)OCCO6)cc4CO)cc3)CC2)cc2ccccc21`, for which the IC50 in the test with C2C12 cells and with U-87 MG cells was at most 1000 nM in each case.

Consider `O=C(c1ccc(Oc2ccc(C3CCC4(CC3)OCCO4)cc2CO)cc1)N1CCN(Cc2ccc(Cl)cn2)CC1`, for which the IC50 with C2C12 cells is at most 5000 nM; in the test on U-87 MG cells, at most 1000 nM.

As to `COCC1(COC)CCC(c2ccc(Oc3ccc(C(=O)N4CCN(Cc5ccc(Cl)cc5)CC4)cc3)c(CO)c2)CC1`, the IC50 in the test with CF21.T cells and in the test on HEP-G2 cells was at most 200 nM in each case.

In the case of `O=C(c1ccc(Oc2ccc(C3CCC4(CC3)OCCO4)cc2CO)cc1)N1CCN(Cc2ccc(C(F)(F)F)cn2)CC1`, the IC50 is at most 1000 nM with C2C12 cells and at most 20000 nM in the test with U-87 MG cells.

As to `O=C(c1ccc(Oc2ccc(C3CCC4(CC3)OCCO4)cc2CO)cc1)N1CCCN(Cc2ccc(C(F)(F)F)cc2)CC1`, the IC50 is at most 200 nM in the test with C2C12 cells and at most 5000 nM in the test with U-87 MG cells.

Take `O=C(c1ccc(Oc2ccc(C3CCC4(CC3)OCCO4)cc2CO)cc1)N1CCN(Cc2ccc3oc(=O)ccc3c2)CC1`: the IC50 in the test with NCI-H460 cells is at most 200 nM; with C2C12 cells, at most 5000 nM; with U-87 MG cells, at most 200 nM.

On to `O=C(c1ccc(Oc2ccc(C3CCC4(CC3)SCCS4)cc2CO)cn1)N1CCN(Cc2ccc(Cl)cc2)CC1`, for which the results for the IC50 in the test with CF21.T cells and in the test on A-375 cells were at most 5000 nM and at most 200 nM, respectively.

Take `COC1CCC(c2ccc(Oc3ccc(C(=O)N4CCN(Cc5ccc(OC(F)(F)F)cc5)CC4)cc3)c(CO)c2)CC1` (centres unmarked): the IC50 in the test on CF21.T cells, in the test on A-431 cells, with HEP-G2 cells and with A-375 cells was at most 200 nM each time.

Take `O=C(c1ccc(Oc2ccc(C3CCC4(CC3)OCCO4)cc2CO)cc1)N1CCN(Cc2ccc([N+](=O)[O-])cc2)CC1`: the half-maximal inhibitory concentration (IC50) in the test with NCI-H460 cells is at most 200 nM; with U-87 MG cells, at most 20000 nM.

Take `COC1CCC(c2ccc(Oc3ccc(C(=O)N4CCN(Cc5ccc(C(F)(F)F)cc5)CC4)cc3)c(CO)c2)CC1` (centres unmarked): the IC50 with CF21.T cells, with A-431 cells and in the test on A-375 cells was at most 200 nM in each case.

For `O=C(c1ccc(Oc2ccc(C3CCC4(CC3)SCCCS4)cc2CO)cn1)N1CCN(Cc2ccc(Cl)cc2)CC1`, the IC50 with CF21.T cells is at most 1000 nM; in the test on A-375 cells, at most 200 nM.

(Values after patent publication US20260384421A1, “NOVEL COMPOUNDS THAT CAN BE USED AS THERAPEUTIC AGENTS” (published 2026).)
